Assay results as given in patent US20230391745A1, “SMALL MOLECULE DEGRADERS OF THE BROMODOMAIN AND PHD FINGER TRANSCRIPTION FACTOR” (Regents of the University of Minnesota, priority 2022, published 2023).

By UniProt entry, the sequences of proteins in these tests, tags left out. Where a name states a change or a piece, a line headed by the entry shows the natural chain unless it says otherwise. Residues count along the entry.
UniProt Q96SW2, whole entry: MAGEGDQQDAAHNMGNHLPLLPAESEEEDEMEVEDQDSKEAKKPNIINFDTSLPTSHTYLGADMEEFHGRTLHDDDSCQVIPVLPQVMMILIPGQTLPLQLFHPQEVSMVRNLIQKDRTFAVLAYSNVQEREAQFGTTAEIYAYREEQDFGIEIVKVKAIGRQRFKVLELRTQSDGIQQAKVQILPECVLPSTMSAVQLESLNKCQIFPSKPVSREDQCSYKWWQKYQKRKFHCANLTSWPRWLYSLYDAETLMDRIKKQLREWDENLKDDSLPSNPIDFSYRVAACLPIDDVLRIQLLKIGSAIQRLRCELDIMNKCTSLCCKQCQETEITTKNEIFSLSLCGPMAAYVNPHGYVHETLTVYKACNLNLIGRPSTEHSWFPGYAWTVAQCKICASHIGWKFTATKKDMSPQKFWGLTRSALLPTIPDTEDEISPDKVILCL
UniProt Q96SW2, 40-442 limits assumed: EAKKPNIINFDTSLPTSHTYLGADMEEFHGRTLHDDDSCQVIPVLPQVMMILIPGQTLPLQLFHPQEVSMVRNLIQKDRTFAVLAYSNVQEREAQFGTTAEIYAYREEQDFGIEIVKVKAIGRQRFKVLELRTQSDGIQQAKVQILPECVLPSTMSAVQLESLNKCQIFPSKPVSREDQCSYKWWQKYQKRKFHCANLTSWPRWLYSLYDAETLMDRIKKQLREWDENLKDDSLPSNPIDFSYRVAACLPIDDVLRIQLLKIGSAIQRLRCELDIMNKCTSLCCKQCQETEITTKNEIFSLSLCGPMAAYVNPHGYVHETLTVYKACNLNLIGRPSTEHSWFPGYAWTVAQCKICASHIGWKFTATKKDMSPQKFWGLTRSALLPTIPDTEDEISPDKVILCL
UniProt Q9H8M2, whole entry: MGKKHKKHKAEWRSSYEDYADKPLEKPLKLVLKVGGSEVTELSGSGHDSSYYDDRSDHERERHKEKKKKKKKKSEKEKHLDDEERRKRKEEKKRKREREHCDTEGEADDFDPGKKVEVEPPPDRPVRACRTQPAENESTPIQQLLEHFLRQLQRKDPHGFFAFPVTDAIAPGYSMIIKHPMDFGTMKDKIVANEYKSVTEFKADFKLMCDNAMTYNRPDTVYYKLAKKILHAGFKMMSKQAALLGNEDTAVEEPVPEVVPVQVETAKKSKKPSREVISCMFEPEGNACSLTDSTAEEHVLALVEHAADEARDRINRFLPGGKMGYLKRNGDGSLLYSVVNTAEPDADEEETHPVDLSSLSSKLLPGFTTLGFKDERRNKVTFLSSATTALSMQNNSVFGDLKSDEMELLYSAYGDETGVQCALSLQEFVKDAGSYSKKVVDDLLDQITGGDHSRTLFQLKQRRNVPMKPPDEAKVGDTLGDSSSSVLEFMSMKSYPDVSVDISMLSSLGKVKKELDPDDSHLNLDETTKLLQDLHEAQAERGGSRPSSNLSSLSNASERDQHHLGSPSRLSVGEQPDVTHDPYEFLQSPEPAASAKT
UniProt Q9H8M2, 136-240 limits assumed: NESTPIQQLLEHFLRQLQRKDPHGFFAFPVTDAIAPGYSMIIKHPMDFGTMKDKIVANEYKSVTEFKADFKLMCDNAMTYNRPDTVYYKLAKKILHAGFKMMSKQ
UniProt Q9BXF3, whole entry: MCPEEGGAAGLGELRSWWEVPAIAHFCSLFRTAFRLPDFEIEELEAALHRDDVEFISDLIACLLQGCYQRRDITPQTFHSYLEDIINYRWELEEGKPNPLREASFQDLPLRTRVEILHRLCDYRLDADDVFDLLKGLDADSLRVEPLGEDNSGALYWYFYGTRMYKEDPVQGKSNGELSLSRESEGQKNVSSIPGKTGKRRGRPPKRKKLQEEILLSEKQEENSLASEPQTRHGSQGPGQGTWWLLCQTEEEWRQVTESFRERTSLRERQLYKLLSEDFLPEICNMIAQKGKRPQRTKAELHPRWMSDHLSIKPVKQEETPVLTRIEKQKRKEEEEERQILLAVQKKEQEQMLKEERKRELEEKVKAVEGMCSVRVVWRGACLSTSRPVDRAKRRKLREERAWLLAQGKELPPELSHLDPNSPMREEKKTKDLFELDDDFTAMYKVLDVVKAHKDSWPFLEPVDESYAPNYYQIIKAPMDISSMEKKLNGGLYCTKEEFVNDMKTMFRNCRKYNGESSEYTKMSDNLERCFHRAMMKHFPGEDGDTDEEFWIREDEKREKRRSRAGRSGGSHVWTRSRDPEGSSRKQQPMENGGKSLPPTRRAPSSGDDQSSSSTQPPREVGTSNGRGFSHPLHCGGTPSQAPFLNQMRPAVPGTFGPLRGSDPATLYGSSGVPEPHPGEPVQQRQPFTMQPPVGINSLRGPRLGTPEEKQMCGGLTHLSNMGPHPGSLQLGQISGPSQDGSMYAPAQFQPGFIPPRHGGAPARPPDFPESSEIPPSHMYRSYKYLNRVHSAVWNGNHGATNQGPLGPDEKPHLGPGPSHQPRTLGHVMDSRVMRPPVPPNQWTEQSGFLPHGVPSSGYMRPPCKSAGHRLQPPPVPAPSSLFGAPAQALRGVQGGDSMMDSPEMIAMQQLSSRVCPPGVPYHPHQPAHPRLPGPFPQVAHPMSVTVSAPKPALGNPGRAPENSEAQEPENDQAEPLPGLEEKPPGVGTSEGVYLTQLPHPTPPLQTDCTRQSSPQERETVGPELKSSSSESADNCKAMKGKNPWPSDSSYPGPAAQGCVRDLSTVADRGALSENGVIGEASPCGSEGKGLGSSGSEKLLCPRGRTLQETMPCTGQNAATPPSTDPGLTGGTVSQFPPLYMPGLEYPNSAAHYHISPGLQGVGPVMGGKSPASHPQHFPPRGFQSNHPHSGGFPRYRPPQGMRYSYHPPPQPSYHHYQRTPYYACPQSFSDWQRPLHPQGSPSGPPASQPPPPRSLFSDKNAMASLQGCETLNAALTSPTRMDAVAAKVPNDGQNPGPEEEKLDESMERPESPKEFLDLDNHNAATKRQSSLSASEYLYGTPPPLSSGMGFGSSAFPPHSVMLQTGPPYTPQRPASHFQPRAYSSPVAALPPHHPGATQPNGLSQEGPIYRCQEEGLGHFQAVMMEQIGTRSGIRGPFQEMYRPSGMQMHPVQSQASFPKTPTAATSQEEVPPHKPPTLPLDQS
UniProt Q9BXF3, 434-538 limits assumed: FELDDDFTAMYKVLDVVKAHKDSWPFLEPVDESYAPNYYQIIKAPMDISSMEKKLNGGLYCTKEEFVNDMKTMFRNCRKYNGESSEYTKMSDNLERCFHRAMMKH
UniProt Q92831, 723-827 limits assumed: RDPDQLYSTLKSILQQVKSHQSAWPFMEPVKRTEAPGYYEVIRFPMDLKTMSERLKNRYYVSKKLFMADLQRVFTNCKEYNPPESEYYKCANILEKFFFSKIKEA
UniProt Q16531, whole entry partner: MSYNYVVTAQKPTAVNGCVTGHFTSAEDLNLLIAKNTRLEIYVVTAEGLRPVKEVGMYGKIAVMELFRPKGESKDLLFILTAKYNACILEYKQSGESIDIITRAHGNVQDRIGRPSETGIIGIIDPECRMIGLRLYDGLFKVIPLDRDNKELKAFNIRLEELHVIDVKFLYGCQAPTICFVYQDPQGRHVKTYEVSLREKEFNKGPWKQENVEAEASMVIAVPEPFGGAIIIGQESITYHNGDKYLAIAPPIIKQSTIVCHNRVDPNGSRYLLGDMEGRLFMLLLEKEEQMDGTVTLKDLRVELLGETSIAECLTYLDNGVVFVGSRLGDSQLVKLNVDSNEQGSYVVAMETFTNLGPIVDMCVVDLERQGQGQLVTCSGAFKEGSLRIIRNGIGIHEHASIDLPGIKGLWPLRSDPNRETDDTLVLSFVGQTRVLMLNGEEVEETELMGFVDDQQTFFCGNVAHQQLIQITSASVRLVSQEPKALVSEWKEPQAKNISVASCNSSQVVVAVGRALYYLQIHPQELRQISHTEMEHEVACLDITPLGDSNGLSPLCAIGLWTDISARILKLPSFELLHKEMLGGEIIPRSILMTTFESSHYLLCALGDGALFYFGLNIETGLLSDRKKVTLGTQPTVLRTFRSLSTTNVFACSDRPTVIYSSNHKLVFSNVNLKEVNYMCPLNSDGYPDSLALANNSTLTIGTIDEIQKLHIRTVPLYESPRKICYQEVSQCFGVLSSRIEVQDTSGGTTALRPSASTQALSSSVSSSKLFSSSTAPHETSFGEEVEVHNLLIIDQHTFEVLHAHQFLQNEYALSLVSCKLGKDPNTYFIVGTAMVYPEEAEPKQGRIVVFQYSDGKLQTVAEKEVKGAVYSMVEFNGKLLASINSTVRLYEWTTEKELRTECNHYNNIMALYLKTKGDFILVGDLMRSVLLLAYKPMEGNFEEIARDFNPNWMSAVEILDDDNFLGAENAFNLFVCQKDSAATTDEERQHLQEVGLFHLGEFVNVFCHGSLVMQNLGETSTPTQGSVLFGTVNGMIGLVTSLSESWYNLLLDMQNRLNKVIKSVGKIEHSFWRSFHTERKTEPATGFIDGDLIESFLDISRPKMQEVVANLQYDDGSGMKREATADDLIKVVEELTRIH

Legend:
[1] = molecular target: Nluc-BPTF-BD fusion construct (Homo sapiens, UniProt Q12830+Q96SW2); assay: In-cell NanoBRET CRBN ternary complex assay with Nluc-BPTF-BD; conditions: 1 μM degrader, C-terminal Nluc-BPTF-BD fusion, HEK293T cells
[2] = molecular target: Nluc-BRD9-FL fusion construct (Homo sapiens, UniProt Q96SW2+Q9H8M2); assay: Degradation of Nluc-BRD9-FL construct by total donor luminescence; conditions: similar conditions as BPTF study (1 μM, 6 h), HEK293T cells
CECR2 = CECR2 (Homo sapiens, UniProt Q9BXF3); assay: Western blotting of CECR2 in HEK293T cells; conditions: 6 h treatment, between 8-200 nM concentrations
[3] = molecular target: GST-BPTF and His-tagged CRBN-DDB1 (Homo sapiens, UniProt Q12830+Q96SW2); assay: In vitro AlphaScreen ternary complex assay, BPTF; conditions: His-CRBN-DDB1, varying degrader concentrations
[4] = molecular target: GST-BRD9 and His-tagged CRBN-DDB1 (Homo sapiens, UniProt Q96SW2+Q9H8M2); assay: In vitro AlphaScreen ternary complex assay, BRD9; conditions: GST-BRD9, His-CRBN-DDB1, varying degrader concentrations
[5] = molecular target: GST-CECR2 and His-tagged CRBN-DDB1 (Homo sapiens, UniProt Q96SW2+Q9BXF3); assay: In vitro AlphaScreen ternary complex assay, CECR2; conditions: GST-CECR2, His-CRBN-DDB1, varying degrader concentrations
[6] = molecular target: GST-PCAF and His-tagged CRBN-DDB1 (Homo sapiens, UniProt Q92831+Q96SW2); assay: In vitro AlphaScreen ternary complex assay, PCAF; conditions: His-CRBN-DDB1, varying degrader concentrations

| Compound | BRET ratio, fold increase over DMSO (in-cell ternary complex formation) [1] [fold] | Degradation of the Nluc-BRD9-FL construct [2] | Degradation of CECR2 by western blotting (CECR2) | Ternary complex formation with BPTF (AlphaScreen signal amplitude) [3] | Ternary complex formation with BRD9 (AlphaScreen signal amplitude) [4] | Ternary complex formation with CECR2 (AlphaScreen signal amplitude) [5] | Ternary complex formation with PCAF (AlphaScreen signal amplitude) [6] |
| --- | --- | --- | --- | --- | --- | --- | --- |
| CS(=O)(=O)c1nc(NCCCn2cccn2)cc(-c2ccc(OCCCN3CCN(CCOCCOCCOc4cccc5c4C(=O)N(C4CCC(=O)NC4=O)C5=O)CC3)cc2)n1 (stereo not shown) | 1.8 | degrade BRD9-FL, albeit not as potently as dBRD9 | significant degradation | – | – | – | – |
| CS(=O)(=O)c1nc(NCCCn2cccn2)cc(-c2ccc(OCCCN3CCN(CCCCCCOc4cccc5c4C(=O)N(C4CCC(=O)NC4=O)C5=O)CC3)cc2)n1 (stereo not shown) | 3.1 | degrade BRD9-FL, albeit not as potently as dBRD9 | significant degradation | – | – | – | – |
| CN(CCCOc1ccc(-c2cc(NCCCn3cccn3)nc(S(C)(=O)=O)n2)cc1)CCOCCOCCOc1cccc2c1C(=O)N(C1CCC(=O)NC1=O)C2=O (stereo not shown) | – | – | – | generally lower | generally lower | generally lower | generally lower |
